Amino acid sequences for entries named in this document (tags omitted).
UniProt Q05655, whole entry: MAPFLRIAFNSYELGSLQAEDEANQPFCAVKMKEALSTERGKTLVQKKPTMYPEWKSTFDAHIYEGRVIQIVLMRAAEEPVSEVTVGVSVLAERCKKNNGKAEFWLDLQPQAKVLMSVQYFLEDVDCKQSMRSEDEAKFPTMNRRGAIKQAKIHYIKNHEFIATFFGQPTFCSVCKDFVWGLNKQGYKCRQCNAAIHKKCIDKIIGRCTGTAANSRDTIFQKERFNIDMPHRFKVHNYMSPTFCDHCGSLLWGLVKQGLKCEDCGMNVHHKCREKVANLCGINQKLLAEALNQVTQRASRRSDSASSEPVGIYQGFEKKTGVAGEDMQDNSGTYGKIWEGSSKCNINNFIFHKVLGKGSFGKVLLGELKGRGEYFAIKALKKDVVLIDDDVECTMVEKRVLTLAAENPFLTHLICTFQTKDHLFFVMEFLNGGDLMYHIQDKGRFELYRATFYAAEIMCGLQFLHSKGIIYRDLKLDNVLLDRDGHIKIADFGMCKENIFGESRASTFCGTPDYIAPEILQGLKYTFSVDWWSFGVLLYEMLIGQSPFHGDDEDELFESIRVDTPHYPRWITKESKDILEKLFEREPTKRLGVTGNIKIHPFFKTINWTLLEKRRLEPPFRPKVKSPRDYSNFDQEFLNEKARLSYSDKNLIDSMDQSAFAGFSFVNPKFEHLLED
UniProt Q04759, whole entry: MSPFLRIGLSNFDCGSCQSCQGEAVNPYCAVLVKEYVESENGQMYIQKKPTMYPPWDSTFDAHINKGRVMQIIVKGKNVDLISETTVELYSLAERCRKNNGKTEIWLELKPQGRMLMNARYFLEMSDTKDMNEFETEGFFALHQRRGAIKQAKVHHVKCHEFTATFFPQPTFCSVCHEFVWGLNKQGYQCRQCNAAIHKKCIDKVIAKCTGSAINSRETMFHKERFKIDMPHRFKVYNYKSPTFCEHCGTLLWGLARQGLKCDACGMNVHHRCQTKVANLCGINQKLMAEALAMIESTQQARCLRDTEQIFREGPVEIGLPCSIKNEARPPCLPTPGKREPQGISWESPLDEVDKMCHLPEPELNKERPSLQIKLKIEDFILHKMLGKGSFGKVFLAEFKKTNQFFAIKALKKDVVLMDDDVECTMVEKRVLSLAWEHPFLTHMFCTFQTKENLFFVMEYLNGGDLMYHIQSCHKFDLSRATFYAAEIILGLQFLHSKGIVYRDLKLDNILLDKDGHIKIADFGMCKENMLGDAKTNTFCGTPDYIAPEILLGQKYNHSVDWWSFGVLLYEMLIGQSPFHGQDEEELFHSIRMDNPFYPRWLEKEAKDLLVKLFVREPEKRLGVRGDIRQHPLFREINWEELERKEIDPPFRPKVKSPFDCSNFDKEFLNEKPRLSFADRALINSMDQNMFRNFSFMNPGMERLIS

In US9783505B2, “Substituted diaminopyrimidyl compounds, compositions thereof, and methods of treatment therewith” (Signal Pharmaceuticals, LLC, priority 2013, dated 2017):

Legend:
[1] = molecular target: PKC delta (Homo sapiens, UniProt Q05655); experiment: PKC delta Assay (384-well time resolved fluorescence, IMAP TR-FRET); type: biochemical; details: selectivity for PKC-theta over PKC-delta
[2] = molecular target: His-PKC-theta (Homo sapiens, UniProt Q04759); experiment: PKC-theta Assay (384-well time resolved fluorescence, IMAP TR-FRET); type: biochemical; details: read-out: Act. Level (IC50 in the PKC-theta Assay)

IC50 [2] [µM] | Compound | Sel. Level (ratio of IC50 PKC-delta/IC50 PKC-theta) [1]
0.1 to 0.8 | CC(F)(F)COc1ncncc1CNc1ncc(C#N)c(N[C@@H]2CC[C@@](C)(O)C(C)(C)C2)n1 | F (selectivity of between 20- and 100-fold (selectivity level F))
< 0.1 | CC(F)(F)COc1ncncc1CNc1ncc(C#N)c(N[C@@H]2CC[C@](C)(O)C(C)(C)C2)n1 | E (selectivity (Sel. Level=ratio of IC50 PKC-delta/IC50 PKC-theta) of >100-fold (selectivity level E))
